“And” between values parts separate entries of the source, which are not always exact repeats. Equal values may be shown once.
Biological target: T1, Gamma-aminobutyric acid receptor subunit alpha-1 (Homo sapiens, UniProt P14867)
T1 sequence (P14867 whole entry): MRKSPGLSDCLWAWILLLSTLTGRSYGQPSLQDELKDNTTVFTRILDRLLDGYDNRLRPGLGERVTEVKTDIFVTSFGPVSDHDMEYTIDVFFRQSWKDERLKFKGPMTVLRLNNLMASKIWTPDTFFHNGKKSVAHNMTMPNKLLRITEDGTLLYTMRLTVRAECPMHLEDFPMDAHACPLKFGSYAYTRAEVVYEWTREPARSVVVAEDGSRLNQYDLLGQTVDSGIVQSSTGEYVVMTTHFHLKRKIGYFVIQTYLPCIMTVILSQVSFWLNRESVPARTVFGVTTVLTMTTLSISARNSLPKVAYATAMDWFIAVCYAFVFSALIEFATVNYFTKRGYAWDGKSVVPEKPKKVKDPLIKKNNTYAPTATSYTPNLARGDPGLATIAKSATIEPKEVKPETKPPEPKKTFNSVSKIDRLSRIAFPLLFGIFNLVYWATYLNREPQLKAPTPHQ

For `CN1CCc2cc3c(cc2[C@H]1[C@@H]1OC(=O)c2c1ccc1c2OCO1)OCO3` [(R)-6-((S)-6-methyl-5,6,7,8-tetrahydro-[1,3]dioxolo[4,5-g]isoquinolin-5-yl)isobenzofuro[5,4-d][1,3]dioxol-8(6H)-one], the Ki was > 10 µM and 4.57 µM.
